Experimental data: patent publication US9790218B2, “Small molecule activators of calcium-activated chloride channels and methods of use” (The Regents of the University of California, priority 2011, dated 2017)

Protein sequences, listed by entry. Tags and fused reporters are not part of them. Chains listed by the source or under a name are the forms on record and can include a tag or linker. Residues count along the entry.
UniProt Q5XXA6, 42-1049 with tags or gaps isoform 5 DEL539-564 limits assumed: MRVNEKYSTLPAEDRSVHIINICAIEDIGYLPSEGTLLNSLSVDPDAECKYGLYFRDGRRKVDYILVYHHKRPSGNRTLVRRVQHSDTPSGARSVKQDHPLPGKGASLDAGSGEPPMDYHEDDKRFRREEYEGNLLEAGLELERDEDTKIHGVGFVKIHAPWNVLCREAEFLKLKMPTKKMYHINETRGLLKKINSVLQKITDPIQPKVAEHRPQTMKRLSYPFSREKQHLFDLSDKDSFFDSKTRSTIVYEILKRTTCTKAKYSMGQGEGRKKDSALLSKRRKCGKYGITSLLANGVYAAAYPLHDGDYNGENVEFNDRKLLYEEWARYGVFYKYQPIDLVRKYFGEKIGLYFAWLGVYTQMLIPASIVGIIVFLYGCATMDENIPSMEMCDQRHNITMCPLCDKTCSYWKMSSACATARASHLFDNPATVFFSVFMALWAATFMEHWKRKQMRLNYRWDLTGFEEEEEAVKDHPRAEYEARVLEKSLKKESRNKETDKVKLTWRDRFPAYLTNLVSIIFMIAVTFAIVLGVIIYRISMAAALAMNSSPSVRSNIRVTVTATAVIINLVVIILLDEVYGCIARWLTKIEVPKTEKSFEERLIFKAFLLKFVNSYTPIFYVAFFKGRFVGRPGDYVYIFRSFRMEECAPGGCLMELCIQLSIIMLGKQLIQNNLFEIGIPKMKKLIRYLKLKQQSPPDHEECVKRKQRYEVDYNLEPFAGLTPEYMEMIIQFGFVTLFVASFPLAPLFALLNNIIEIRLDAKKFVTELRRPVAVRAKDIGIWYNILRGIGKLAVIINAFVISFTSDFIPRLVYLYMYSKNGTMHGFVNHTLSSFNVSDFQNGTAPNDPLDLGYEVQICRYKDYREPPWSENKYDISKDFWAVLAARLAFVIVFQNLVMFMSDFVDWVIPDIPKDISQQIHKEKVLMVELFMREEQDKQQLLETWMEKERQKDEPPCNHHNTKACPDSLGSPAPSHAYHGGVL

Target: human TMEM16A (Homo sapiens, UniProt Q5XXA6, DEL476-501)
Experiment: Fluorescence plate reader assay of TMEM16A-mediated I^− influx (YFP halide sensor)
Assay type: cell-based
Details: Eact analogs

EC50 | SMILES
9 µM | COc1cc(C(=O)N(Cc2ccco2)c2nc(-c3ccccc3)cs2)cc(OC)c1OC
5 µM | COc1ccc(OC)c(-c2csc(N(Cc3ccccc3)C(=O)c3cc(OC)c(OC)c(OC)c3)n2)c1
4 µM | COc1cc(C(=O)N(Cc2ccccc2)c2nc(-c3ccc(Cl)cc3)cs2)cc(OC)c1OC
1 µM | COc1cc(C(=O)N(Cc2ccccc2)c2nc(-c3ccccc3)cs2)cc(OC)c1OC
5 µM | COCCN(C(=O)c1cc(OC)c(OC)c(OC)c1)c1nc(-c2ccc(OC)cc2)cs1
9 µM | COc1cc(C(=O)N(Cc2ccco2)c2nc(-c3ccc(F)cc3)cs2)cc(OC)c1OC

SMILES | EC50
COc1cc(C(=O)N(CC2CCCO2)c2nc(-c3ccc(F)cc3)cs2)cc(OC)c1OC (stereo not shown) | 3 µM
COc1cc(C(=O)N(CC2CCCO2)c2nc(-c3ccc(Cl)cc3)cs2)cc(OC)c1OC (stereo not shown) | 3 µM
COc1cc(C(=O)N(CC2CCCO2)c2nc(-c3ccccc3)cs2)cc(OC)c1OC (stereo not shown) | 4 µM
COc1ccc(-c2csc(N(CC3CCCO3)C(=O)c3cc(OC)c(OC)c(OC)c3)n2)cc1 (stereo not shown) | 8 µM
